# scFv variants of Ab-95 (light chain) against a SARS-CoV-2 spike peptide

Source: Engelhart et al. 2022 (doi:10.1038/s41597-022-01779-4), MIT Lincoln Laboratory and A-Alpha Bio; data file from the FLAb repository.

Binding partner: SARS-CoV-2 spike HR2 peptide, sequence PDVDLGDISGINAS.

Parent scFv Ab-95: VH joined to VL by the linker GGGGSGGGGSGGGGS. Changes lie in the light chain CDRs alone.
VH: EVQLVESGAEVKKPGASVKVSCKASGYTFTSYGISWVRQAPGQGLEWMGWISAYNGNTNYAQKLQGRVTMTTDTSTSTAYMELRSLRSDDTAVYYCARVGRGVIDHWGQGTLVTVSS
VL: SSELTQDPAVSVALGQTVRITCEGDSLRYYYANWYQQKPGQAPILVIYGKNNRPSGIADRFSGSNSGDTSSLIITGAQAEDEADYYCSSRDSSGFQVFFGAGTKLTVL

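The starting antibody came from a phage panning campaign against this peptide. AAYL52 was designed without a model: most single CDR substitutions and a random sample of double and triple ones. AlphaSeq pools MATa yeast showing the antibodies with MATalpha yeast showing the peptide. Mating (16 h, 30 °C) was followed by selection of diploids and sequencing of their barcodes. The ratio of observed to expected reads was calibrated, replicate by replicate, on BCL2-family standards whose Kd was known from biolayer interferometry. Mating was done three times.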

Changes read parent residue, position, new residue, counted from the first residue of the VL shown.
This list gathers variants with a substitution at G24 (VL, numbered from residue 1).
The Kd shown is the geometric mean over detected replicates; a lower Kd is a better binder.
A pair that was not seen in any replicate is written "nd"; this usually means weak binding, but a binder can also be missed.
The list is sorted by this average, lowest first, undetected variants last.
Parent in this assay: reference entry 200 nM, copy in this library 180 nM.
Empty control strains, which show no peptide, gave a signal in 28% of pairings with library AAYL52; the median was 8.2 µM and 95% of these signals were weaker than 800 nM. No background was subtracted. Also given: how often the same scFv was detected with the empty control strains.

With G24K+N33Q the result was 150 nM (3 of 3 replicates; controls 0 of 9). Variant G24A+K50P+S92C showed 340 nM (3 of 3 replicates; controls 5 of 9). Variant G24I+R53K showed 500 nM (1 of 3 replicates; controls 1 of 9). Variant G24Y+S26N+Y29C gave 660 nM (1 of 3 replicates; controls 1 of 9). Variant G24R+D25M+S89C showed 800 nM (3 of 3 replicates; controls 2 of 9). Variant G24D+Y30F+R53E gave 920 nM (3 of 3 replicates; controls 6 of 9).

With G24S+P54N+Q96R the result was 1.1 µM (3 of 3 replicates; controls 5 of 9). Variant E23K+G24C+D91F showed 1.2 µM (3 of 3 replicates; controls 2 of 9). Variant G24Q+Y31I showed 1.3 µM (3 of 3 replicates; controls 3 of 9). Variant G24W+Y29N+R90F showed 1.3 µM (1 of 3 replicates; controls 1 of 9). Variant G24M+R90P+S92P showed 1.4 µM (1 of 3 replicates; controls 0 of 9). Variant G24L+Y31K+A32N gave 1.5 µM (1 of 3 replicates; controls 4 of 9).

Variant G24M+N51Q+Q96N showed 1.8 µM (1 of 3 replicates; controls 0 of 9). Variant G24Y+S89V+V97I showed 2.0 µM (3 of 3 replicates; controls 2 of 9). Variant G24D+S26D+S89I gave 2.5 µM (1 of 3 replicates; controls 4 of 9). Variant G24Y+S89T+Q96R gave 2.5 µM (2 of 3 replicates; controls 3 of 9). With E23N+G24I+D91F the result was 3.4 µM (2 of 3 replicates; controls 2 of 9). For G24S+R28D+S89Y, the assay gave 3.6 µM (3 of 3 replicates; controls 1 of 9).

With E23Q+G24E+F95Q the result was 4.7 µM (2 of 3 replicates; controls 4 of 9). Variant G24L+Y29A+Y31F gave 6.0 µM (2 of 3 replicates; controls 2 of 9). For G24A+R28D+N33C, the assay gave 6.3 µM (2 of 3 replicates; controls 3 of 9). For G24K+S55V+S93Y, the assay gave 7.2 µM (2 of 3 replicates; controls 3 of 9). Variant G24I+S93Y+G94I showed 7.8 µM (2 of 3 replicates; controls 4 of 9). Variant G24A+L27I+K50C showed 9.9 µM (2 of 3 replicates; controls 4 of 9).

For G24Q+Y29V+R53I, the assay gave 10 µM (2 of 3 replicates; controls 2 of 9). Variant G24M+Y31F+D91K showed 13 µM (3 of 3 replicates; controls 3 of 9). For E23V+G24P+A32F, the assay gave 16 µM (2 of 3 replicates; controls 4 of 9). For G24C+K50P+Q96M, the assay gave 16 µM (2 of 3 replicates; controls 1 of 9). Variant G24D+D25K+F98I gave 17 µM (1 of 3 replicates; controls 3 of 9). Variant G24P+Y30E+R90N showed 17 µM (2 of 3 replicates; controls 2 of 9).

Variant G24T+S26T+Y29Q gave 19 µM (3 of 3 replicates; controls 6 of 9). For G24F+N33L, the assay gave 19 µM (2 of 3 replicates; controls 2 of 9). Variant G24C+G49A+S93F gave 23 µM (2 of 3 replicates; controls 1 of 9). For G24C+R53A, the assay gave 27 µM (3 of 3 replicates; controls 5 of 9). With G24T+D25G+V97I the result was 30 µM (2 of 3 replicates; controls 1 of 9). For G24R+Y29V+F98R, the assay gave 34 µM (1 of 3 replicates; controls 1 of 9).

For G24N+Y29Q+P54D, the assay gave 68 µM (1 of 3 replicates; controls 3 of 9). Variant G24P+A32L+R53M gave 170 µM (1 of 3 replicates; controls 3 of 9). For G24K+D25N+S89M, the assay gave nd (0 of 3 replicates; controls 2 of 9). Variant G24D+P54F+S88Q showed nd (0 of 3 replicates; controls 0 of 9). Variant G24N+L27H+S92K gave nd (0 of 3 replicates; controls 2 of 9). For G24C+Y30H+R90H, the assay gave nd (0 of 3 replicates; controls 0 of 9).

Variant G24C+R28V+S89F showed nd (0 of 3 replicates; controls 3 of 9). Variant G24R+D25V+S89Y gave nd (0 of 3 replicates; controls 3 of 9).

The first 6 variants above that were never detected:

{"changes": "G24K+D25N+S89M", "apparent Kd": "nd", "detected": "0 of 3", "control signals": "2 of 9"}
{"changes": "G24D+P54F+S88Q", "apparent Kd": "nd", "detected": "0 of 3", "control signals": "0 of 9"}
{"changes": "G24N+L27H+S92K", "apparent Kd": "nd", "detected": "0 of 3", "control signals": "2 of 9"}
{"changes": "G24C+Y30H+R90H", "apparent Kd": "nd", "detected": "0 of 3", "control signals": "0 of 9"}
{"changes": "G24C+R28V+S89F", "apparent Kd": "nd", "detected": "0 of 3", "control signals": "3 of 9"}
{"changes": "G24R+D25V+S89Y", "apparent Kd": "nd", "detected": "0 of 3", "control signals": "3 of 9"}